We go through 28 compounds from PubChem BioAssay AID686979 (National Center for Advancing Translational Sciences (NCATS), 2013).

Only a part is listed here, and it is no random draw. Some tests of the compounds listed are not included; inactive here does not mean inactive elsewhere. Records with an inconclusive call do not appear. The source made the active and inactive calls. Calls come from the whole dose curve; as a rule, active = well fitted inhibition curve with a large enough effect; inconclusive = small, poorly fitted or top-dose-only effect; inactive = flat fitted curve, though single readings scatter.
% is set by controls: 0 for no effect and ±100 for the full control effect; potency is the fitted concentration of half-maximal effect.

The nature of the test: qHTS for Inhibitors of human tyrosyl-DNA phosphodiesterase 1 (TDP1): qHTS in cells in presence of CPT. Note: nearly all actives have a fitted effect of over 55% in size. Particulars: chicken DT40 Tdp1-/-;hTDP1 cells + 20 nM CPT, ATP luminescence, 48 h; series mostly up to 46.2 µM; activity change, negative = growth inhibition: at the top concentration. In general terms: Quantitative high-throughput screening tests each substance at several concentrations.
On to `CN(C)C1(CNC(=O)c2ccc(Br)cc2)CCCCC1`, for which the “activity change, negative = growth inhibition” value was inactive: -0.507%.

As to `COc1cc(C(=O)NCC2(N(C)C)CCCCC2)c([N+](=O)[O-])cc1OC`, the “activity change, negative = growth inhibition” value is inactive: 12.3%.

As for `COc1ccc(C(=O)NCC2(N(C)C)CCCCC2)cc1Cl`, the “activity change, negative = growth inhibition” value was inactive: 0.616%.

For the compound `COc1cccc(C(=O)NCC2(N3CCCCC3)CCCCC2)c1`, the “activity change, negative = growth inhibition” value was inactive: -0.105%.

For the compound `COc1ccc(Cl)cc1C(=O)NCC1(N(C)C)CCCCC1`, the “activity change, negative = growth inhibition” value was inactive: 0.416%.

Turning to `O=C(OC1CN2CCC1CC2)C(CO)(c1ccccc1)c1ccccc1` (stereo not drawn), the “activity change, negative = growth inhibition” value is inactive: -0.752%.

For `CC(C)COc1ccc(C(=O)NCC2(N(C)C)CCCCC2)cc1`, the Potency was active: 20.6 µM.

On to `Cc1cccc(C(=O)NCC2(N(C)C)CCCCC2)c1`, for which the “activity change, negative = growth inhibition” value is inactive: 1.5%.

With `COc1cc(C(=O)NCC2(N(C)C)CCCCC2)cc(OC)c1OC`, the “activity change, negative = growth inhibition” value was inactive: 7.52%.

On to `C=C(C)C#CC(O)(C(=O)OC1CCN(C)CC1)c1ccccc1` (stereo not drawn), for which the “activity change, negative = growth inhibition” value is inactive: -7.64%.

As for `CN(C)c1cccc(C(=O)NCC2(N(C)C)CCCCC2)c1`, the “activity change, negative = growth inhibition” value is inactive: -7.32%.

Consider `CC(C)Oc1ccc(C(=O)NCC2(N(C)C)CCCCC2)cc1`, for which the Potency result was “inactive”.

As to `O=C(NCC1(N2CCCCC2)CCCCC1)c1cc([N+](=O)[O-])ccc1Cl`, the “activity change, negative = growth inhibition” value was inactive: -0.249%.

For `CN1[C@@H]2CC[C@H]1CC(OC(=O)C(O)(c1ccccc1)c1ccccc1)C2` (stereo partly drawn), the “activity change, negative = growth inhibition” value was inactive: -0.81%.

On to `CC(C)N1C(=O)CC2(CCN(CCOC(=O)C(O)(c3ccccc3)c3ccccc3)CC2)C1=O`, for which the “activity change, negative = growth inhibition” value was inactive: -4.8%.

Turning to `CCN(CC)CC(C)C(C)OC(=O)C(O)(c1ccccc1)c1ccccc1` (stereo not drawn), the “activity change, negative = growth inhibition” value was inactive: -30%.

On to `CN(C)C1(CNC(=O)c2cccc(Cl)c2)CCCCC1`, for which the “activity change, negative = growth inhibition” value was inactive: 1.14%.

Turning to `COc1cc(SC)ccc1C(=O)NCC1(N(C)C)CCCCC1`, the “activity change, negative = growth inhibition” value is inactive: -0.454%.

With `Cc1ccc(C(=O)NCC2(N3CCCCC3)CCCCC2)cc1`, the “activity change, negative = growth inhibition” value is inactive: -12.8%.

Regarding `Cc1ccccc1C(=O)NCC1(N2CCCCC2)CCCCC1`, the “activity change, negative = growth inhibition” value is inactive: 3.8%.

As to `CN(C)c1ccc(C(=O)NCC2(N(C)C)CCCCC2)cc1`, the “activity change, negative = growth inhibition” value was inactive: 4.5%.

Take `CN1CCCC(OC(=O)C(O)(c2ccccc2)c2ccccc2)C1` (stereo not drawn): the “activity change, negative = growth inhibition” value was inactive: -4.06%.

On to `C=CCN1CCN(CCOC(=O)C(O)(c2ccccc2)c2ccccc2)CC1`, for which the “activity change, negative = growth inhibition” value is inactive: -1.57%.

Take `O=C(NCC1(N2CCCCC2)CCCCC1)c1cc(F)c(F)cc1Cl`: the “activity change, negative = growth inhibition” value was inactive: -3.29%.

As to `Cc1cc(C(=O)NCC2(N3CCCCC3)CCCCC2)ccc1[N+](=O)[O-]`, the “activity change, negative = growth inhibition” value is inactive: 3.28%.

Turning to `CCN1CCCC(OC(=O)C2(O)c3ccccc3C=Cc3ccccc32)C1` (stereo not drawn), the “activity change, negative = growth inhibition” value was inactive: -9.06%.

As to `O=C(NCC1(N2CCCCC2)CCCCC1)c1cccc(Br)c1`, the “activity change, negative = growth inhibition” value was inactive: 7.05%.

Turning to `COc1ccc(C(=O)NCC2(N(C)C)CCCCC2)cc1`, the “activity change, negative = growth inhibition” value was inactive: 0.0725%.
